{"source": "PubChem BioAssay AID662", "about": "(National Center for Advancing Translational Sciences (NCATS), 2007)", "note": "Only a part is listed here, and it is no random draw. Records with an inconclusive call do not appear. Activity calls are given as the source filed them. The call rests on the fitted dose curve; in most records, active means well fitted activation curve with a large enough effect in the signal ratio, with a control signal flat (not every such curve was filed as active); inconclusive means small, poorly fitted or top-dose-only effect, or effect the other way, or a change in a side signal; inactive means flat fitted curve, though single readings scatter; the % refers to the signal ratio.", "data": [{"assay": "Cell signaling CRE-BLA (Fsk stim); further: % of control where 0% means no effect", "conditions": "CHO CRE-bla reporter (cAMP response element driving beta-lactamase), forskolin EC10, beta-lactamase ratio; at 38.2 µM (top of the series) unless noted", "from_the_text": "NIH Molecular Libraries Screening Centers Network [MLSCN]\nNIH Chemical Genomics Center [NCGC]\nAssay Provider: Marshall W. Nirenberg, U.S. National heart lung & blood institute\nMemories persist for different lengths of time, from seconds or minutes to a lifetime. There are two kinds of memory: short-term memory (STM) and long-term memory (LTM). STM lasts for minutes to hours, which maybe mediated by modifications of molecules involved in synaptic functions. LTM lasts for days or longer, and may be due to the formation of new synapses or restructuring of existing synapses. LTM, but not STM, requires gene transcription and synthesis of proteins. CREB (cyclic-AMP Responsive Element Binding Protein) is one of the candidates plays an important role for enhancement of some types of LTM. CREB, a family of transcription factors, regulates the transcription of genes containing cAMP Responsive Elements (CRE). CRE is a nucleotide sequence often found in the promoter regions of genes that are binding sites for CREB.\nUsing a beta-lactamase reporter-gene under control of cAMP responsive element, a cell-based assay [CellSensor(TM) CRE-bla CHO developed by Invitrogen Corp.] was used to measure forskolin-induced signaling. Library compounds were measured for their ability to modulate positively or negatively the action of EC10 NKH 477, a water soluble forskolin, on reporter gene activity. Compounds were screened in a titration series in 1536-well format. Positive and negative modulators were identified based on the AC50 values derived from the screening data.\nNCGC Assay Protocol Summary\n2000 cells/5uL in Opti-MEM medium containing 0.5% dialyzed FBS, 0.1 mM NEAA, 1 mM sodium pyruvate and 10 mM HEPES was dispensed into 1536-well plates and cells were cultured at 37 degrees Celsius overnight. […] And then the plates were incubated at 37 degrees Celsius for 3 hours. 1 uL of CCF4-dye mixture was added to each well. After incubated at room temperature for 2 hours the plates were measured on an EnVision plate reader at Excitation 405nm, Emission1=460nm and Emission 2=530nm. The %Activity was determined from the ratio of 460nm/530nm.\nKeywords: NIH Roadmap, MLSCN, MLSMR, qHTS, NCGC, CRE, beta-lactamase reporter-gene assay.", "values": [{"smiles": "C/C1=C2N=C(/C=C3N=C(/C(C)=C4\\[N-][C@@](C)([C@H]5N=C1[C@@](C)(CCC(=O)NC[C@H](C)OP(=O)([O-])O[C@@H]1[C@H](O)[C@H](n6cnc7cc(C)c(C)cc76)O[C@@H]1CO)[C@@H]5CC(N)=O)[C@](C)(CC(N)=O)[C@H]4CCC(N)=O)[C@@](C)(CC(N)=O)[C@@H]\\3CCC(N)=O)C(C)(C)[C@@H]/2CCC(N)=O.[C-]#N.[Co+3]", "activity change, negative = inhibition": "inactive: 4.39% [at 17.1 µM]"}, {"smiles": "N#[O+].[C-]#N.[C-]#N.[C-]#N.[C-]#N.[C-]#N.[Fe+2].[Na+].[Na+]", "activity change, negative = inhibition": "inactive: 5.6%"}, {"smiles": "COc1ccccc1OP(C)(=O)Nc1c(C)n(C)n(-c2ccccc2)c1=O", "note": "(stereo not given)", "activity change, negative = inhibition": "inactive: -3.92%"}, {"smiles": "CP(=O)(Oc1ccccc1)N1CCOC1=O", "note": "(stereo not given)", "activity change, negative = inhibition": "inactive: -0.243%"}, {"smiles": "CP(=O)(Nc1ccccn1)Oc1ccccc1", "note": "(stereo not given)", "activity change, negative = inhibition": "inactive: 2.37%"}, {"smiles": "COc1ccccc1OP(C)(=O)Nc1ccc(C)c(C)c1", "note": "(stereo not given)", "activity change, negative = inhibition": "inactive: 5.63%"}, {"smiles": "Cc1nc2ccc3ccccc3c2o1.O=[N+]([O-])c1cc([N+](=O)[O-])c(O)c([N+](=O)[O-])c1", "activity change, negative = inhibition": "inactive: -14.1%"}, {"smiles": "CCC(C)(OO)OOC(C)(CC)OO", "note": "(stereo not given)", "activity change, negative = inhibition": "inactive: 4.68%"}, {"smiles": "CCOP(C)(=S)SCC(=O)NC(C)(CC)C(=O)O", "note": "(stereo not given)", "activity change, negative = inhibition": "inactive: 28.4%"}, {"smiles": "CCOP(=O)(CC)OCC", "activity change, negative = inhibition": "inactive: 9.29%"}, {"smiles": "CP(=O)(Nc1ccc2c(c1)OCCO2)Oc1ccccc1", "note": "(stereo not given)", "activity change, negative = inhibition": "inactive: 6.49%"}, {"smiles": "[NH4+].[O-][Cl+3]([O-])([O-])[O-]", "activity change, negative = inhibition": "inactive: -19.4%"}, {"smiles": "NNC(NN)NN.n1nc(-c2nn[nH]n2)n[nH]1", "activity change, negative = inhibition": "inactive: 5.97% [at 7.6 µM]"}, {"smiles": "CN(C)CCOC(=O)C(O)(c1ccccc1)C1CCCCC1", "note": "(stereo not given)", "activity change, negative = inhibition": "inactive: -4.66%"}, {"smiles": "Cc1c([N+](=O)[O-])cccc1[N+](=O)[O-]", "activity change, negative = inhibition": "inactive: -7.97%"}, {"smiles": "Cc1nc2ccc3ccccc3c2s1.O=[N+]([O-])c1cc([N+](=O)[O-])c(O)c([N+](=O)[O-])c1", "activity change, negative = inhibition": "inactive: 5.16%"}, {"smiles": "Cc1ccc(C)c(NP(C)(=O)Oc2ccccc2)c1", "note": "(stereo not given)", "activity change, negative = inhibition": "inactive: 2.08%"}, {"smiles": "O=[N+]([O-])c1cccc([N+](=O)[O-])c1", "activity change, negative = inhibition": "inactive: -19.5%"}, {"smiles": "Cc1ccc([N+](=O)[O-])cc1[N+](=O)[O-]", "activity change, negative = inhibition": "inactive: -10.1%"}, {"smiles": "COc1ccccc1OP(C)(=O)Nc1ccc(C)cc1", "note": "(stereo not given)", "activity change, negative = inhibition": "inactive: 11.4%"}, {"smiles": "Cc1ccc(NP(C)(=O)Oc2ccccc2)c(C)c1", "note": "(stereo not given)", "activity change, negative = inhibition": "inactive: -2.06%"}, {"smiles": "O=[N+]([O-])[O-].[NH4+]", "activity change, negative = inhibition": "inactive: -7.69%"}, {"smiles": "CCOP(C)(=S)SCC(=O)NC(C)C(=O)O", "note": "(stereo not given)", "activity change, negative = inhibition": "inactive: 7.08%"}, {"smiles": "N1=C(c2nnc(-c3nn[nH]n3)nn2)NNN1", "activity change, negative = inhibition": "inactive: -2.3% [at 7.6 µM]"}, {"smiles": "CP(=S)(Nn1cnnc1)Oc1ccccc1", "note": "(stereo not given)", "activity change, negative = inhibition": "inactive: -12%"}]}]}
